This test concerns enzyme (protease, amylase, lipase). Briefly: Overall effects of phosphonates on enzyme activity (Table 3). Type of test: biochemical. The note with it: overall effect of the phosphonate on enzyme activity in the detergent use solution.

Regarding `OCCN(CCO)CCO`, the “Stability (effects on enzyme activity)” value is reported as “Yes, when neu- tralized with a phos- phonate”.
